Five substances from patent publication US7642244B2, “Neuropeptide-2 receptor (Y-2R) agonists and uses thereof” (Hoffmann-La Roche Inc., priority 2005, dated 2010) can be followed below.

Amino acid sequences for entries named in this document (tags omitted). A change or cut given only in a name is not applied to a line headed by its entry.
UniProt P49146, whole entry: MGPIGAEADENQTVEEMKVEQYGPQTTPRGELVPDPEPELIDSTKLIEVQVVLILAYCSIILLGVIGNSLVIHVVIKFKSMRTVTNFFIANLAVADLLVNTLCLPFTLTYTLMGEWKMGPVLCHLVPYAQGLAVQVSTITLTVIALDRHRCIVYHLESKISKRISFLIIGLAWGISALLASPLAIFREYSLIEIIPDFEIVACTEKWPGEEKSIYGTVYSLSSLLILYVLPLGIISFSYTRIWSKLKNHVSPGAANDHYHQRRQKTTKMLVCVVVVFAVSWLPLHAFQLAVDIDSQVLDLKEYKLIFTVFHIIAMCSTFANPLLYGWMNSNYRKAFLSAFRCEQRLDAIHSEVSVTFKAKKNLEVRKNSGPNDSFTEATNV
UniProt P25929, whole entry: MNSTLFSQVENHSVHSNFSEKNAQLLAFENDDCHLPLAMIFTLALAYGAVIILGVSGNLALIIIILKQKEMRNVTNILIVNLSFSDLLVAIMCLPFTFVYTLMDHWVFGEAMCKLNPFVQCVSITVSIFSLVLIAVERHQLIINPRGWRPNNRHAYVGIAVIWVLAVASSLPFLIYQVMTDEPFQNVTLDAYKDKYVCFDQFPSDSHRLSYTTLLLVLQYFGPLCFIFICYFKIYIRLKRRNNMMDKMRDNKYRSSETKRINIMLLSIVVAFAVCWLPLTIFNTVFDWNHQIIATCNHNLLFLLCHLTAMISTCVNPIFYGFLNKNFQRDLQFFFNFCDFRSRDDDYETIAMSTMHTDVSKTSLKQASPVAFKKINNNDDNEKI
UniProt P50391: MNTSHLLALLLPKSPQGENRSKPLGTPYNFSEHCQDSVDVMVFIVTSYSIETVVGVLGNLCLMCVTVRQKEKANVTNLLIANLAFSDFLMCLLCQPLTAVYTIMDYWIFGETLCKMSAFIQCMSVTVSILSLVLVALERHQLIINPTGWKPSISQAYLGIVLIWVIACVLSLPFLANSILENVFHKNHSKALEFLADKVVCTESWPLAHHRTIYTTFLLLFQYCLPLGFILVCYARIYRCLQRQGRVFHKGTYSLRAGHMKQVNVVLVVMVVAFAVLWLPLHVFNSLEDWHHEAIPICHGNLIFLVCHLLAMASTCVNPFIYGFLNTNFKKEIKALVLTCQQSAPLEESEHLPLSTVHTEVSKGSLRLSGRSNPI

Bounds are passed on as bounds.

Broadly, the EC50 is the concentration needed to bring the measured effect to its halfway point.

What all share (assay type): cell-based
For test [1], the target named is T1, human NPY2 receptor (HEK293/hNPY2R cells) (Homo sapiens, UniProt P49146).
T1 construct: expressed in transfected cells; host or cells: HEK-293 stably transfected with G protein chimera Gaqi9 (HEK293/hNPY2R)
As to the kind of experiment: Cyclic AMP assay, Y2R. Particulars: forskolin 5 μM, read-out: Y2R EC50 (nM) cAMP.

The next test deals with Y1R (Homo sapiens, UniProt P25929). Put plainly: Calcium flux assay (FLIPR), Y1R. As for the experimental part: (§1) During the assay, fluorescence readings were taken simultaneously from all 384 wells of the cell plate every 1.5 seconds. […] The fluorescence was continuously monitored before, during and after sample addition for a total elapsed time of 100 seconds. Responses (increase in peak fluorescence) in each well following addition was determined. The initial fluorescence reading from each well, prior to ligand stimulation, was used as a zero baseline value for the data from that well.

Another test deals with Y4R (Homo sapiens, UniProt P50391). As to the kind of experiment: Calcium flux assay (FLIPR), Y4R. The protocol:
as §1
For orientation: Calcium flux is commonly read through the fluorescence of an indicator in the cells.

The target in another test is T2, Y5R (Homo sapiens, UniProt Q15761).
T2 sequence (Q15761 1-445): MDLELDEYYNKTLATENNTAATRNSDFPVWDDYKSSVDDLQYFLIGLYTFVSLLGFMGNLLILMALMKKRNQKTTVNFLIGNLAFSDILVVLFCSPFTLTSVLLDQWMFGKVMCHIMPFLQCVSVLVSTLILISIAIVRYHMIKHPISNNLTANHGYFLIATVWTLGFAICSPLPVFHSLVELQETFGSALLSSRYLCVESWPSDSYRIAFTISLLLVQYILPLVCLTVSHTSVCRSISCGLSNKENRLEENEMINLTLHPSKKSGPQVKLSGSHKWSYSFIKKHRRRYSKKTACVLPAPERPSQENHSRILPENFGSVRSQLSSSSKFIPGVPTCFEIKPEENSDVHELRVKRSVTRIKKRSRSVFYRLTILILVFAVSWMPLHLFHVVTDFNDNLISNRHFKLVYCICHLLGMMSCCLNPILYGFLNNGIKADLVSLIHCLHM
Put plainly: Calcium flux assay (FLIPR), Y5R. The protocol: as §1

The next test has as its target T3, human NPY2 receptor (Homo sapiens, UniProt P49146).
T3 construct: expressed in transfected cells; host or cells: HEK-293 stably transfected with G protein chimera Gaqi9 (HEK293/hNPY2R)
As to the kind of experiment: Calcium flux assay (FLIPR), Y2R. The note with it: HEK293/hNPY2R cells. As for the experimental part: Cells were harvested with trypsin-EDTA and counted using ViaCount reagent. […] CO2 incubator overnight.
as §1

On to “((PEG-30,000)CH2CH2CO)Ile-Lys-Pqa-Arg-His-Tyr-Leu-Asn-Trp-Val-Thr-Arg-Gln-(NMe)Arg-Tyr-NH2 (SEQ ID NO: 32) and Ile((PEG-30,000)CH2CH2CO)(ε)Lys-Pqa-Arg-His-Tyr-Leu-Asn-Trp-Val-Thr-Arg-Gln-(NMe)Arg-Tyr-NH2 [Example 34]”, for which the concentration for a half-maximal effect (EC50) in test [1] is 18 nM; on Y1R, > 5000 nM; on Y4R it was > 5000 nM; on Y5R, > 5000 nM.
Regarding “Ile((PEG-30,000)CH2CH2NHCOCH2CH2CO)(ε)Lys-Pqa-Arg-His-Tyr-Leu-Asn-Trp-Val-Thr-Arg-Gln-(NMe)Arg-Tyr-NH2 [Example 41]”, the concentration giving a half-maximal response (EC50) was 9.8 nM in test [1], > 5000 nM on Y1R, > 5000 nM at Y4R and > 5000 nM at Y5R.
For “((PEC30,000)CH2Cl2NHCOCH2CH2CO)Ile-Nle-Pqa-Arg-His-Tyr-Leu-Asn-Trp-Val-Thr-Arg-Gln-(NMe)Arg-Tyr-NH2 [Example 36]”, the half-maximal effective concentration (EC50) is 7.8 nM in test [1], > 5000 nM at Y1R, > 5000 nM on Y4R and > 5000 nM at Y5R.
“((PEG-30,000)CH(CH3)CH2CO)Ile-Nle-Pqa-Arg-His-Tyr-Leu-Asn-Trp-Val-Thr-Arg-Gln-(NMe)Arg-Tyr-NH2 [Example 37]”: the EC50 on Y1R, at Y4R and at Y5R was > 5000 nM in each case.
Turning to “((PEG-40,000)CO)Ile-Lys-Pqa-Arg-His-Tyr-Leu-Asn-Trp-Val-Thr-Arg-Gln-(NMe)Arg-Tyr-NH2 (SEQ ID NO: 34) and Ile((PEG-40,000)CO)(ε)Lys-Pqa-Arg-His-Tyr-Leu-Asn-Trp-Val-Thr-Arg-Gln-(NMe)Arg-Tyr-NH2 [Example 35]”, the concentration giving a half-maximal response (EC50) on human NPY2 receptor was 590 nM; at Y1R, > 5000 nM; at Y4R, > 5000 nM; at Y5R it was > 5000 nM.
